Reference: ChEMBL document CHEMBL3593202, “Design, Synthesis, and Characterization of 3-(Benzylidene)indolin-2-one Derivatives as Ligands for α-Synuclein Fibrils” (J Med Chem, 2015)

How the values were obtained:
Homo sapiens [1] = species on record: Homo sapiens; experiment: Selectivity ratio of Ki for amyloid beta (1 to 42) (unknown origin) to Ki for recombinant alpha-synuclein (unknown origin)
Homo sapiens [2] = species on record: Homo sapiens; experiment: Selectivity ratio of Ki for human recombinant tau (243 to 375) to Ki for recombinant alpha-synuclein (unknown origin)

- Ratio Ki (Homo sapiens [1]): 20
- Ratio Ki (Homo sapiens [2]): 20
Structure (SMILES): CN(C)c1ccc(/C=C/C=C2\C(=O)N(Cc3ccc([N+](=O)[O-])cc3)c3ccccc32)cc1 (mixture of isomers)
